Experimental data as given in patent US7511119B2, “PRAME peptide analogues” (MannKind Corporation, priority 2005, dated 2009).

Tests used:
[1] = system: T cell lines against natural epitope SSX-241-49; assay: Cross-reactivity and functional avidity: IFN-gamma production by T cell lines raised against natural SSX-2 41-49; type: cell-based, HHD transgenic mice; conditions: T cells raised to native peptide tested on analogs; footnote * and unit not given;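 also: analogs presented ex vivo by competent APCs to T cells specific for the non-mutated epitope, scored by lowest activating concentration, peak cytokine effect and concentration at that peak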
HLA-A*0201 = HLA-A*0201 (Homo sapiens, UniProt P04439, D140Y/D185E/D98H/E176V/E277Q/G131W/G231S/I119V/I121R/I166T/I218V/L300P/L318F/N151K/N90K/P208A/P217A/Q86G/Q94H/R138H/R169H/T345S); assay: Peptide binding using T2 cells; conditions: half maximal binding of wild-type peptide relative to analog;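 also: Read-out is peptide-induced stabilization of HLA-A*0201 on the cell surface, reflecting mainly Kon at limiting peptide levels and both Kon and Koff at saturating levels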

CC[C@H](C)[C@H](NC(=O)[C@H](CCCCN)NC(=O)[C@H](CCC(=O)O)NC(=O)[C@H](CO)NC(=O)[C@@H](NC(=O)[C@@H](N)Cc1ccccc1)C(C)C)C(=O)N[C@@H](Cc1ccccc1)C(=O)N[C@@H](Cc1ccc(F)cc1)C(=O)N[C@H](C(=O)O)C(C)C [SSX2 41-49 (K41F, A42V, Y48(Phe-4F)), FVSEKIF(Phe-4F)V]
Cross-reactivity and fct avidity (native to analogs)* [1]: 10
Relative affinity (1/RA) (HLA-A*0201): 1.4
